The results in this text go back to PubChem BioAssay AID2550 (Johns Hopkins Ion Channel Center, 2010).

The chains behind the UniProt entries cited, without tags or fusion partners.
UniProt Q61143, whole entry: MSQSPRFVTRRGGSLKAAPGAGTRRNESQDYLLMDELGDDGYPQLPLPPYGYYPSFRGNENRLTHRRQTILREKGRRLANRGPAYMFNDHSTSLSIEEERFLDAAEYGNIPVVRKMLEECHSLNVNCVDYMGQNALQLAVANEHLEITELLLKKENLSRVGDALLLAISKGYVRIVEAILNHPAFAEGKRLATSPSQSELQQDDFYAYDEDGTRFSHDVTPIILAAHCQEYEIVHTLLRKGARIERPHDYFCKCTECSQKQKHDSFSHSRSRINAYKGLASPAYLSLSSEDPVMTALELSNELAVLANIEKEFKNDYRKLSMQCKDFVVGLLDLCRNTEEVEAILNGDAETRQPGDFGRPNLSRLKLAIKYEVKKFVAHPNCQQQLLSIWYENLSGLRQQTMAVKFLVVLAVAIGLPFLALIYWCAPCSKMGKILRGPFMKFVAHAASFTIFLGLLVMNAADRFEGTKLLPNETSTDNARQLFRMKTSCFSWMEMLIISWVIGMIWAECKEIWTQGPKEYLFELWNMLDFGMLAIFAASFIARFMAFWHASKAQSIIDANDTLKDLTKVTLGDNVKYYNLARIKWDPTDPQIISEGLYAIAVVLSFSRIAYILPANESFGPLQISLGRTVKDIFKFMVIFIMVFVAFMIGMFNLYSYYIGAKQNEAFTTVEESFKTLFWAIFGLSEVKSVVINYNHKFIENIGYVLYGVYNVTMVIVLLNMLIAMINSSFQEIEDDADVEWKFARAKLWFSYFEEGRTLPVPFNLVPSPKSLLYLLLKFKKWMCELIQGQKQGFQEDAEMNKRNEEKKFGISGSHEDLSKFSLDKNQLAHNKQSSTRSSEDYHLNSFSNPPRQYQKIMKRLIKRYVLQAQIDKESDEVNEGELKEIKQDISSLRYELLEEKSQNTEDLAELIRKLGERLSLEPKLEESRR

Only a part is listed here, and it is no random draw. Activity calls are given as the source filed them.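 How the source made its calls: active means B-score of the integrated fluorescence ratio above library mean plus 3 SD, and starting fluorescence ratio within library mean plus 5 SD; inactive means the rest.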

The target of the assay is Short transient receptor potential channel 6 (Mus musculus) (UniProt Q61143). The assay can be described thus: mouse TRPC6 channel activators, primary screen, cell-based, HEK293, membrane potential dye (AID 2550).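 Further: higher score means more depolarization so channel activation.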 As to conditions: HEK293-TRPC6 membrane potential dye fluorescence; at 10 µM.
In the case of `CCOC(=O)C(CC)C1=NC(C)(C)Cc2ccccc21.O=[N+]([O-])c1cc([N+](=O)[O-])c(O)c([N+](=O)[O-])c1` (centres undefined), the compound was classed as inactive.
Consider `CN(C)C1(CNC(=O)c2ccc(S(C)(=O)=O)cc2)CCCCC1`, for which the outcome was inactive.
The entry for `O=[N+]([O-])c1cc([N+](=O)[O-])c(Nc2nnnn2CCO)c([N+](=O)[O-])c1` is “inactive”; for `O=C(/C=C/c1ccccc1)OC1CN2CCC1CC2` (centres undefined) it is “inactive”; for `CN1CCCCC1COC(=O)C1(O)c2ccccc2CCc2ccccc21` (centres undefined) it is “inactive”.
Take `COc1ccccc1OP(C)(=O)Nc1c(C)cccc1C` (centres undefined): the outcome was inactive.
With `O=P1(Nc2ncccn2)COc2ccccc2OC1`, the compound was classed as inactive.
The entry for `CCCOc1ccc(NP(C)(=O)Oc2ccc(Cl)cc2)cc1` (centres undefined) is “inactive”.
The entry for `Nc1cccc([As](=O)(O)c2ccccc2)c1` is “inactive”; for `CP(=O)(Nc1ccc(SC(F)(F)F)cc1)Oc1ccccc1` (centres undefined) it is “inactive”.
For the compound `Cc1ccc(OCC(=O)OC2CN3CCC2CC3)cc1` (centres undefined), the result was inactive.
The entry for `O=[As](O)(c1cccs1)c1cccs1` is “inactive”; for `O=P1(Nc2ccc(Br)cn2)COc2ccccc2OC1` it is “inactive”; for `O=P(Nc1nccs1)(Oc1ccccc1)Oc1ccccc1` it is “inactive”.
The entry for `O=P(Nc1nccs1)(c1ccccc1)c1nc2ccccc2s1` (centres undefined) is “inactive”; for `O=C(O)c1cccc(Nc2c([N+](=O)[O-])cc([N+](=O)[O-])cc2[N+](=O)[O-])c1` it is “inactive”; for `CCOP1(=S)c2c(C)nn(CCC#N)c2N=C(c2ccccc2F)N1C` (centres undefined) it is “inactive”.
`CS(=O)(=O)c1cc([N+](=O)[O-])c2no[n+]([O-])c2c1`: the result was inactive.
The entry for `O=C(O)COc1ccc([As](=O)(O)O)cc1[N+](=O)[O-]` is “inactive”.
As to `Nc1ccccc1[As](=O)(O)c1ccccc1`, the result was inactive.
As to `NC(=O)Nc1ccc([As](=O)(O)O)cc1`, the call was inactive.
On to `CN(C(=O)Cc1ccccc1)[C@@H]1CC[C@]2(CCCO2)C[C@H]1N1CCCC1`, for which the outcome was inactive.
As to `CCOP1(=S)c2c(C)nn(CCC#N)c2N=C(c2ccc(F)cc2)N1C` (centres undefined), the outcome was inactive.
Consider `N#CCCN(C(=O)COC(=O)C(O)(c1ccccc1)c1ccccc1)c1ccc(F)cc1`, for which the compound was classed as inactive.
The entry for `CC1=NCCc2c1[nH]c1ccccc21.O=[N+]([O-])c1cc([N+](=O)[O-])c(O)c([N+](=O)[O-])c1` is “inactive”; for `CN(C(=O)Cc1ccc(Cl)c(Cl)c1)[C@H]1CC[C@@]2(CCCO2)C[C@@H]1N1CCCC1` it is “inactive”.
As for `O=[N+]([O-])c1ccc2c(c1)nnn2O`, the compound was called inactive.
As for `CN(C)C(=O)c1cc([N+](=O)[O-])cc2c1-c1c(cc([N+](=O)[O-])cc1[N+](=O)[O-])C2=O`, the call was inactive.
As to `O=C(OC1CN2CCC1CC2)c1ccc(Cl)cc1` (centres undefined), the compound was called inactive.
For `COc1ccccc1OP(C)(=O)Nc1cccc(Br)c1` (centres undefined), the call was inactive.
The entry for `CS(=O)(=O)c1ccc(Cl)c(NC(=O)COC(=O)C(O)(c2ccccc2)c2ccccc2)c1` is “inactive”; for `O=[As](O)(O)c1cccnc1` it is “inactive”.
As for `COc1cc(C(=O)NCC2(N3CCOCC3)CCCCC2)cc(Cl)c1OC(C)C`, the call was inactive.
The entry for `Cc1cc(C)cc(OP(C)(=O)Nc2ccc(C)cc2C)c1` (centres undefined) is “inactive”; for `Cc1cccc(OCC(=O)OC2CN3CCC2CC3)c1` (centres undefined) it is “inactive”.
As for `O=[As](O)(c1cccc(O)c1)c1cccc(O)c1`, the outcome was inactive.
The entry for `CCOC(=O)c1ccc(NP(C)(=O)Oc2cc(C)cc(C)c2)cc1` (centres undefined) is “inactive”; for `Cc1ccc(NCCc2c([N+](=O)[O-])cc([N+](=O)[O-])cc2[N+](=O)[O-])cc1` it is “inactive”; for `Nc1cccc2c([As](=O)(O)O)cccc12` it is “inactive”.
For `Cc1cc(C)cc(OP(C)(=O)Nc2ccccn2)c1` (centres undefined), the compound was classed as inactive.
With `CP(=O)(Nc1cccc(Br)c1)Oc1ccccc1` (centres undefined), the result was inactive.
On to `Cc1ccc(C)c(NP(C)(=O)Oc2ccccc2)c1` (centres undefined), for which the outcome was inactive.
Regarding `CCCOP(=S)(Nc1nc(N)cc(=O)[nH]1)OCCC`, the compound was called inactive.
Take `CCOP(=O)(Nc1cccc2ccccc12)OCC`: the compound was classed as inactive.
